Screening results deposited in PubChem BioAssay by Broad Institute.
Statin myotox sup: suppressors of simvastatin-induced myotoxicity in C2C12 myotubes; AID 602340; actives 0.78% (n = 330,000); rescue of ATP level, % at 7.49 µM; ATP luminescence, 48 h; scaled: DMSO 0, geranylgeraniol control 100;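 active = mean ATP rescue above about 67%, or every replicate alone reaching that limit, limit read from the data, passing the limit was not always enough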;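 also: myotubes were challenged with 10 µM simvastatin during compound exposure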
Yeast UUG start: alters start codon recognition fidelity in yeast | S. cerevisiae UUG-firefly luciferase reporter, luminescence/redox ratio | activity score, % at 18.7 µM | 350,000 compounds, 0.13% hits | AID 602363;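 active = replicate mean at a twofold rise or more, about +100% in these data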;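 note: firefly luciferase made from a UUG start codon reports start codon fidelity; reporter light over untreated wells divided by growth signal over untreated wells; some hits fall short of that in this replicate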
miR122 inh: blocks miR-122 activity in Huh7 sensor cells. Huh7 miR-122 Renilla luciferase sensor, 48 h; neutral wells = 0, positive control = 100. activation (reporter increase), % at 12.5 µM. actives 0.3% (n = 340,000);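 active = mean replicate activation score at least 90 and every replicate individually at or above 90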;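 also: higher luciferase means less miR-122 activity so hits act as miR-122 inhibitors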
Cneo AK release: Cryptococcus neoformans lysis via adenylate kinase release; actives 0.2% (n = 360,000); lysis activity, % at 15 µM; C. neoformans lysis, adenylate kinase release luminescence, 4 h; normalised: neutral wells 0, clomiphene wells 100;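 active = mean lysis activity across replicates of at least 80%, whatever share of replicates individually reach that level; inactive = mean lysis activity below 80%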
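Assay system: log-phase C. neoformans yeast / Quantity: yeast cell density of 5 × 10^6 cells/mL / Medium: fresh YPD growth medium / Compound: single dose / Timing: static 4 h at 37 °C with compound, 1 h detection / Measured by: adenylate kinase release luminescence / Read-out: lysis from increased AK signal / Benchmarks: Clomiphene as positive lysis control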
An asterisk follows results filed as active; / = not tested or not shown; [ ] = remark or other dose. A selection: hits, their analogues and other compounds. The true share with any hit is near 1.2%.

1. C[C@@H](NC(=O)C[C@@H]1C[C@@H]2c3cc(NC(=O)NC4CCCC4)ccc3O[C@@H]2[C@@H](CO)O1)c1ccccc1
2. CCOc1cc2[nH]c(=S)n(CCCN(CC)CC)c(=O)c2cc1OCC
3. CCOc1cc2[nH]c(=S)n(CCOC)c(=O)c2cc1OCC
4. CCC(=O)N1C[C@H]2[C@@H](c3ccccc31)[C@@H](CO)N2C(=O)CC1CC1
5. Cc1ccccc1S(=O)(=O)N[C@H]1CC[C@H](CCNS(=O)(=O)c2cccc(F)c2)O[C@H]1CO
6. O=C(Nc1cccc(F)c1)N[C@H]1CC[C@@H](CCNS(=O)(=O)c2cccc(Cl)c2)O[C@H]1CO
7. Cc1ccccc1S(=O)(=O)N[C@H]1CC[C@@H](CCNS(=O)(=O)c2cccc(F)c2)O[C@@H]1CO
8. Cc1ccccc1S(=O)(=O)N[C@@H]1CC[C@H](CCNS(=O)(=O)c2cccc(F)c2)O[C@H]1CO

Screen / compound no.,1,2,3,4,5,6,7,8
Cneo AK release,0,1,-2,-2,93*,3,2,90*
Statin myotox sup,-5,-8,111*,15,2,-4,3,2
miR122 inh,4[16.7 µM],-15,0,-4[16.7 µM],/,/,/,/
Yeast UUG start,-6,-25,-12,-11,31,/,20,26

9. O=C(Nc1cccc(F)c1)N[C@H]1CC[C@H](CCNS(=O)(=O)c2cccc(Cl)c2)O[C@@H]1CO
10. Cc1ccccc1S(=O)(=O)N[C@@H]1CC[C@H](CCNS(=O)(=O)c2cccc(F)c2)O[C@@H]1CO
11. C[C@H](CO)N1C[C@H](C)[C@H](CN(C)C(=O)NC2CCCCC2)OCCCC[C@H](C)Oc2ccc(NC(=O)Nc3cccc4ccccc34)cc2C1=O
12. C[C@@H]1CN([C@H](C)CO)C(=O)c2cc(NC(=O)Nc3cccc4ccccc34)ccc2O[C@@H](C)CCCCO[C@H]1CN(C)C(=O)NC1CCCCC1
13. C[C@H](CO)N1C[C@H](C)[C@H](CN(C)C(=O)NC2CCCCC2)OCCCC[C@H](C)Oc2ccc(NC(=O)C3CCCCC3)cc2C1=O
14. C[C@@H]1CN([C@@H](C)CO)C(=O)c2cc(NC(=O)Nc3cccc4ccccc34)ccc2O[C@@H](C)CCCCO[C@H]1CN(C)C(=O)NC1CCCCC1
15. C[C@@H]1CN([C@H](C)CO)C(=O)c2cc(NC(=O)Nc3cccc4ccccc34)ccc2O[C@@H](C)CCCCO[C@@H]1CN(C)C(=O)NC1CCCCC1
16. C[C@H]1CCCCO[C@@H](CN(C)C(=O)NC2CCCCC2)[C@@H](C)CN([C@@H](C)CO)C(=O)c2cc(NC(=O)Nc3cccc4ccccc34)ccc2O1

Screen / compound no.,9,10,11,12,13,14,15,16
Cneo AK release,105*,45,2,3,104*,3,-2,2
Statin myotox sup,15,7,137*,-8,7,9,74*,96*
miR122 inh,/,/,4[16.7 µM],-8[16.7 µM],-2[16.7 µM],-2[16.7 µM],-4[16.7 µM],3[16.7 µM]
Yeast UUG start,/,16,0,10,4,-35,5,21

17. CCCNC(=O)[C@@H]1[C@@H](CO)[C@@H]2Cn3c(ccc(-c4cccnc4)c3=O)[C@H]1N2C(=O)Nc1ccccc1
18. C[C@H]1CN([C@@H](C)CO)C(=O)c2cc(NC(=O)C3CC3)ccc2O[C@@H]1CN(C)CC1CCCCC1
19. C[C@H](CO)N1C[C@H](C)[C@@H](CN(C)C(=O)Nc2ccccc2)Oc2ccc(NS(=O)(=O)c3ccc(Cl)cc3)cc2CC1=O
20. O=c1[nH]nc(Cc2ccc(Cl)cc2Cl)c2ccccc12
21. C[C@H]1CN([C@@H](C)CO)C(=O)c2cccc(NC(=O)C3CCOCC3)c2O[C@H]1CN(C)C
22. Cc1ccc(S(=O)(=O)N(C)C[C@H]2Oc3ccc(NC(=O)Cc4ccccc4)cc3CC(=O)N([C@@H](C)CO)C[C@@H]2C)cc1
23. Cc1ccc(S(=O)(=O)N(C)C[C@H]2Oc3ccc(NC(=O)Nc4ccc(C(F)(F)F)cc4)cc3CC(=O)N([C@H](C)CO)C[C@H]2C)cc1
24. Cc1ccc(S(=O)(=O)N(C)C[C@@H]2Oc3ccc(NC(=O)Nc4ccc(C(F)(F)F)cc4)cc3CC(=O)N([C@H](C)CO)C[C@@H]2C)cc1

Screen / compound no.,17,18,19,20,21,22,23,24
Cneo AK release,-6,-1,0,3,-4,50,-1,0
Statin myotox sup,8,81*,4,140*,-5,85*,-53,-177
miR122 inh,0[16.7 µM],5[16.7 µM],-4[16.7 µM],-10,-2[16.7 µM],3[16.7 µM],-6[16.7 µM],123*[16.7 µM]
Yeast UUG start,/,8,10,-27,-3,24,6,0

25. O=S(=O)(N[C@H]1CC[C@H](CCn2cc(-c3ccccn3)nn2)O[C@H]1CO)c1cccc(Cl)c1
26. C[C@H](CO)N1C[C@H](C)[C@@H](CN(C)C(=O)Nc2cccc3ccccc23)Oc2ccc(NS(=O)(=O)c3cn(C)cn3)cc2C1=O
27. C[C@@H]1CN([C@H](C)CO)C(=O)c2cc(NS(=O)(=O)c3cn(C)cn3)ccc2O[C@H]1CN(C)C(=O)Nc1cccc2ccccc12
28. C[C@H]1CN([C@@H](C)CO)C(=O)c2cc(NS(=O)(=O)c3cn(C)cn3)ccc2O[C@H]1CN(C)C(=O)Nc1cccc2ccccc12
29. C[C@@H]1CN([C@@H](C)CO)C(=O)c2cc(NS(=O)(=O)c3cn(C)cn3)ccc2O[C@@H]1CN(C)C(=O)Nc1cccc2ccccc12
30. C[C@H](CO)N1C[C@H](C)[C@H](CN(C)C(=O)Nc2ccccc2)Oc2ccc(NC(=O)Cc3cn(C)c4ccccc34)cc2C1=O
31. O=C(Nc1ccc2c(c1)[C@@H]1C[C@H](CC(=O)N3CCc4ccccc4C3)O[C@@H](CO)[C@@H]1O2)C1CCC1
32. CC(C)COc1ccc(C(=O)OCCN2CCOCC2)c(O)c1

Screen / compound no.,25,26,27,28,29,30,31,32
Cneo AK release,0,0,100*,-3,90*,9,-12,-1
Statin myotox sup,0,21,7,7,27,-6,-4,-8
miR122 inh,-9[16.7 µM],-3[16.7 µM],1[16.7 µM],7[16.7 µM],12[16.7 µM],-6[16.7 µM],-5[16.7 µM],-5
Yeast UUG start,35,1,2,-3,9,-7,4,-5

33. COc1cc(C(=O)OCCN2CCOCC2)ccc1O
34. O=C(CN1CCN(Cc2ccccc2)CC1)N1CCCc2ccccc21
35. O=C(Cn1c(=O)[nH]n(-c2ccccc2)c1=O)N1CCCc2ccccc21
36. O=C(Nc1ccccn1)c1ccc(C(=O)c2ccccc2)cc1
37. O=C(c1ccccc1)c1nc[nH]c1C(=O)Nc1ccccn1
38. Nc1nc2c(s1)C(=O)CCC2
39. COc1nc2c(s1)C(=O)NCCC2
40. COc1ccc(Br)cc1CNC(=O)Nc1cccs1

Screen / compound no.,33,34,35,36,37,38,39,40
Cneo AK release,-1,0,-3,-4,5,-2,3,0
Statin myotox sup,108*,-3,86*,13,120*,91*,14,36
miR122 inh,-2,9,1,-5,0,-4,-7,106*
Yeast UUG start,-1,-5,-1,-34,-19,-10,-8,-18

41. CC#CC#Cc1cccc(=O)o1
42. CN1CCN(C2=Cc3ccccc3Sc3cc(F)ccc32)CC1
43. CN1CCN(C2=Cc3ccc(Cl)cc3Sc3ccc(F)cc32)CC1
44. C[C@H](CO)N1C[C@H](C)[C@H](CN(C)S(=O)(=O)c2ccc(Cl)cc2)Oc2ccc(NC(=O)C3CC3)cc2C1=O
45. C[C@@H]1CN([C@H](C)CO)S(=O)(=O)c2ccc(C#C[C@@H](C)O)cc2O[C@@H]1CN(C)C(=O)CN(C)C

Screen / compound no.,41,42,43,44,45
Cneo AK release,0,6,9,15,-6
Statin myotox sup,97*,110*,/,7,-4
miR122 inh,0,-2,-7,-8[16.7 µM],-10[16.7 µM]
Yeast UUG start,-2,35,-7,7,1

3 of these compounds, set out differently:
No. | SMILES | Cneo AK release | Statin myotox sup | miR122 inh | Yeast UUG start
43 | CN1CCN(C2=Cc3ccc(Cl)cc3Sc3ccc(F)cc32)CC1 | 9 | / | -7 | -7
44 | C[C@H](CO)N1C[C@H](C)[C@H](CN(C)S(=O)(=O)c2ccc(Cl)cc2)Oc2ccc(NC(=O)C3CC3)cc2C1=O | 15 | 7 | -8[16.7 µM] | 7
45 | C[C@@H]1CN([C@H](C)CO)S(=O)(=O)c2ccc(C#C[C@@H](C)O)cc2O[C@@H]1CN(C)C(=O)CN(C)C | -6 | -4 | -10[16.7 µM] | 1
